Measured values taken from patent US11767303B2, “Compounds and methods for inhibiting viral replication and methods of treating and preventing flaviviral infections” (priority 2020, dated 2023).

Tested on: A549 cells
Experiment: WST-8 cell proliferation cytotoxicity assay
Assay type: cell-based, human
Details: Table 4, preliminary SAR

For `CN1CCC(Oc2ccc(Cl)cc2C(=O)Nc2ccc3c(c2)S(=O)(=O)C=C3)CC1`, the CC50 was 8.4 µM.
